For nine compounds, GTP binding activity results are on record in PubChem BioAssay AID760 (NMMLSC, 2007).

The list shows a part of the results, in another mix than the full data. Some tests of the compounds listed are not included; inactive here does not mean inactive elsewhere. The source made the active and inactive calls.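 The calls were made as follows: active = GTP binding activity at least 20 points away from 100%, either lowered or raised; inconclusive = signal likely due to the compound's own green fluorescence; inactive = the rest.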

The target of this assay is Ras-related protein Rab-2A (Canis lupus familiaris) (UniProt P61105). Nature of the assay: modulators of GTP binding to Rab2A wildtype, primary screen, biochemical, dog, bead-based flow cytometry, multiplex (AID 760).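 Also: 0% = beads with excess unlabeled GTP and 100% = no-compound control corrected for plate trend.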 Conditions: GST-Rab2 wt beads, Bodipy-GTP binding, at 10 µM. A general note: In flow cytometry, cells or beads pass a laser one at a time.
With `CN(C)c1cccc(C(=O)NCC2(N(C)C)CCCCC2)c1`, the GTP binding activity is inactive: 104%.

Take `O=C(OC1CN2CCC1CC2)C(CO)(c1ccccc1)c1ccccc1` (centres undefined): the GTP binding activity was inactive: 99%. With `COc1cccc(C(=O)NCC2(N3CCCCC3)CCCCC2)c1` the figure was inactive: 100%; with `C=CCN1CCN(CCOC(=O)C(O)(c2ccccc2)c2ccccc2)CC1`, inactive: 96%. To `CCN1CCCC(OC(=O)C2(O)c3ccccc3C=Cc3ccccc32)C1` (centres undefined) belongs inactive: 100%; to `CN(C)C1CCCC1OC(=O)C(O)(c1ccccc1)c1ccccc1` (centres undefined), inactive: 99%.

With `Cc1ccccc1C(=O)NCC1(N2CCCCC2)CCCCC1`, the GTP binding activity is inactive: 100%. To `CC(C)N1C(=O)CC2(CCN(CCOC(=O)C(O)(c3ccccc3)c3ccccc3)CC2)C1=O` belongs inactive: 101%; to `O=C(NCC1(N2CCCCC2)CCCCC1)c1cc([N+](=O)[O-])ccc1Cl`, inactive: 95%.
